Test results taken from paper PMC7163917 (European journal of medicinal chemistry, 2020).

Tested on: PC 12 cell cultures
Settings: PC12 cells

SMILES	differentiation and migration functions	toxicity in PC 12 cell cultures
O=C(O)c1cccc2c1NC(c1ccc(F)cc1)C1CC(Sc3ccccc3[N+](=O)[O-])C(Cl)C21 (stereo not shown) [ST2–5]	increased level of differentiation and migration functions	no toxicity
Cc1cc(C(=O)O)ccc1-c1ccc(C=C2C(=O)c3ccccc3C2=O)o1 [ST3–5]	increased level of differentiation and migration functions	no toxicity
